Measurements reported in patent publication US10174011B2, “Heterocyclic compounds, process for preparation of the same and use thereof” (SHANGHAI INSTITUTE OF MATERIA MEDICA, CHINESE ACADEMY OF …, priority 2014, dated 2019).

Chains of the proteins cited; added tags and fusions are not shown.
UniProt P14416, whole entry: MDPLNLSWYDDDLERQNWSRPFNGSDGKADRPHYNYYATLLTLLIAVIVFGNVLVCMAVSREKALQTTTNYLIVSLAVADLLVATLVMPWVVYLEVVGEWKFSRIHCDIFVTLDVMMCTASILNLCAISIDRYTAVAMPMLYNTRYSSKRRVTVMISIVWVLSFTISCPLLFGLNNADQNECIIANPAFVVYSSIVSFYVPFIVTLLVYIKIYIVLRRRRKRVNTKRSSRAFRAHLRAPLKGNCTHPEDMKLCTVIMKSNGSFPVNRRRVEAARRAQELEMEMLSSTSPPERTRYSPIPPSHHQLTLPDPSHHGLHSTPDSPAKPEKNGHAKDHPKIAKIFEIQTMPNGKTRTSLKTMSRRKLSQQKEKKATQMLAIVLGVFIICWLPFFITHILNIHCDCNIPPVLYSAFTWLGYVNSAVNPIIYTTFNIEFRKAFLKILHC

Target: human recombinant D2 receptor (Homo sapiens (Human), UniProt P14416)
Assay: D2 receptor antagonism activity test (inhibition of dopamine-induced decrease of cAMP production, LANCE cAMP 384 Kit)
Details: read-out: D2 receptor antagonism (IC50, mol/L), HEK293 cells expressing human recombinant D2 receptor, 0.1 nM-10000 nM

## O=c1ccc2ccc(CCCCCN3CCN(c4cccc5sccc45)CC3)cc2[nH]1 [Compound of example 11, 7-(5-(4-(benzo[b]thiophen-4-yl)piperazin-1-yl)pentyl)quinolin-2(1H)-one]
  IC50: 0.0102 µM
